Biological target: MMP-8, catalytic domain (Homo sapiens, UniProt P22894)
Assay: Inhibition of MMP-8 (HNC) catalytic domain, fluorogenic substrate cleavage
Type: biochemical
Details: read-out: IC50 Values of MMP-Inhibitor (vs. MMP-8, catalytic domain); catalytic domain of human neutrophil collagenase (MMP-8); substrate DNP-Pro-Leu-Gly-Leu-Trp-Ala-D-Arg-NH2; 25° C.
Protocol: In order to determine the inhibition of MMPs, for example HNC (MMP-8), the catalytic domain (isolation and purification see for example Schnierer, S., Kleine, T., Gote, T., Hillemann, A., Knäuper, V., Tschesche, H.,Biochem. Biophys. Res. Commun. (1993) 191, 319-326) were incubated with inhibitors having various concentrations. Subsequently, the initial reaction rate in the conversion of a standard substrate was measured in a manner analogous to Grams F. et al., FEBS 335 (1993) 76-80).
The results awee evaluated by plotting the reciprocal reaction rate against the concentration of the inhibitor. […]
The synthetic collagenase substrate was a heptapeptide which is coupled, at the C terminus, with DNP (dinitrophenol). Said DNP residue quenched by steric hindrance the fluorescence of the adjacent tryptophane of the heptapeptide. After cleavage of a tripeptide which includes the DNP group, the tryptophane fluorescence increased. The proteolytic cleavage of the substrate therefore was measured by the fluorescence value.
The assay was performed at 25° C. in a freshly prepared 50 mM Tris buffer (pH 8.0) treated with dithiozone to remove traces of heavy metals. […] Enzyme concentrations were determined by uv measurements (ε280=2.8 10^4 M^−1 cm^−1, ε288: 2.2 10^4 M^−. cm^−1) and the stock solutions were stored in the cold. […]

Sequences of proteins named here, by UniProt entry; tags and fusion partners are left off. Residues count along the entry.
UniProt P22894, 100-262 limits assumed: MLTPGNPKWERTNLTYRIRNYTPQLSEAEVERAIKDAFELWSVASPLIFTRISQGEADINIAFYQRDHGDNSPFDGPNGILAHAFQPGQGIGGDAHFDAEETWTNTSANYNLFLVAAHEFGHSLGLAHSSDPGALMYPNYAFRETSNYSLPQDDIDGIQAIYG

Q: `CCCCCCCCC1(N2CCN(c3ccc([N+](=O)[O-])cc3)CC2)C(=O)NC(=O)NC1=O` was tested. Which IC50 did it give?
A: Its IC50 is 60 nM.

Source: patent publication US6498252B1, “Pyrimidine-2,4,6-trione derivatives, processes for their production and pharmaceutical agents containing these compounds” (priority 1999, dated 2002)
